# Experimental data reported in ChEMBL document CHEMBL1129336, “Ryanodine action at calcium release channels. 2. relation to substituents of the cyclohexane ring” (J Med Chem, 1996).
# Molecular target: T1, Ryanodine receptor 2 (Canis lupus familiaris) (UniProt Q8WN72)
# T1 sequence (whole entry): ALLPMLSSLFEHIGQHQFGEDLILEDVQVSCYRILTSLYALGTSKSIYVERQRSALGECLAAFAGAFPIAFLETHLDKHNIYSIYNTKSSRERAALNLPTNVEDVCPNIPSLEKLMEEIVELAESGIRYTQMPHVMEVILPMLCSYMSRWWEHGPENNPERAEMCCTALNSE
# Assay: Displacement of [3H]ryanodine binding to ryanodine receptor(ryr) in canine left ventricular membranes
# Assay type: cell membranes
# Procedure, shortened: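 Radioligand displacement assays of [3H]ryanodine binding at the ryanodine receptor, one each on rabbit skeletal muscle, mouse brain and canine ventricle preparations. Values are means of three to five experiments, each run in duplicate; standard error is reported as percent of the mean.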
compound,measurement,value
CC1CCC2(O)C3(C)CC4(O)OC2(C1O)C1(O)C3(O)C(OC(=O)c2ccc[nH]2)C(O)(C(C)C)C41C (stereo unspecified),Relative activity,78
